Source: patent US9765153B2, “Anti-biotin antibodies and methods of use” (Hoffmann-La Roche Inc., priority 2012, dated 2017)

System: biotinylated protein
Test: Biolayer interferometry (BLI, Octet QK) binding of captured antibody to biotinylated protein
Conditions: biosensors coated with control antibody
Protocol: The binding properties of the recombinant chimeric and humanized anti-biotin antibody and a variant thereof, which has a cysteine at position 53 in the HVR-H2 according to the numbering of Kabat, were analyzed by biolayer interferometry (BLI) technology using an Octet QK instrument (Fortebio Inc.). This system is well established for the study of molecule interactions. BLi-technology is based on the measurement of the interference pattern of white light reflected from the surface of a biosensor tip and an internal reference. Binding of molecules to the biosensor tip is resulting in a shift of the interference pattern which can be measured. To analyze if the humanization procedure described above diminished the ability of the anti-biotin antibody to bind to biotin, the properties of the chimeric and the humanized versions of the antibody in their ability to bind to a biotinylated protein were compared directly. Binding studies were performed by capturing anti-biotin antibody on anti-huIgG Fc antibody Capture (AHC) Biosensors (Fortebio Inc.). […] Binding was measured by incubating the antibody-coated biosensors in a solution containing biotinylated protein with a concentration of 0.06 mg/ml in 20 mM histidine, 140 mM NaCl, pH 6.0 for 5 min. Dissociation was monitored for 5 min. in 1× PBS pH 7.4. […]

Substance: Herceptin: control antibody coated on biosensors, which does not bind biotin
- binding of biotin (control antibody coated on biosensors): does not bind biotin
